Columns and labels:
[1] = solid cosmetic agents, Table 1; cited from earlier work
[2] = Precursor cosmetic compositions evaluated for crystals content, i.e. solubility of solid agent in the liquid agent (Example 29); type: physicochemical
Procedure: The following precursor cosmetic compositions were prepared and evaluated for crystals content, i.e. solubility of solid agent in the liquid agent.
The composition is heated to a temperature above the melting point of the highest melting compound, then allowed to cool to room temperature. […] In the case of end use cosmetic compositions visualization of the crystals of solid agent was done by comparing a sample with and without tricyclodecane amide and observing the formation of crystals, if any, under the optical microscope fitted with cross-polarizers at a magnification of 10× or higher.

Appearance after cooling - observation at 24 hours, except as noted ([2]; Avobenzone (41%) in OMC (59%), [S]/[L] 0.7, no tricyclodecaneamide) | Appearance after cooling - observation at 24 hours, except as noted ([2]; Salicylic acid (20%) in conjugated linoleic acid (80%), [S]/[L] .3, no tricyclodecaneamide) | Appearance after cooling - observation at 24 hours, except as noted ([2]; Salyclic acid (10%) in OMC (90%), [S]/[L] 0.1, no tricyclodecaneamide) | Compound | Log Po/w [1]
crystals + liquid |  |  | COc1ccc(C(=O)CC(=O)c2ccc(C(C)(C)C)cc2)cc1 [Avobenzone] | 4.19
 | opaque solid | crystal + liquid | O=C(O)c1ccccc1O [Salicylic Acid] | 2.01

From patent US9883997B2, “Cosmetic compositions with tricyclodecane amides” (Conopco, Inc., priority 2013, dated 2018)
